Biological target: FtsZ-YFP-mts (Escherichia coli, UniProt P0A9A6)
Type: biochemical
Design: made in house; host or cells: E. coli BL21(DE3) for the wild type
Conditions: 5 μM protein, 1 mM GTP; average of two repeats
Protocol: Reactions were performed every 20 s for a total time of 120 s. After 30 min of incubation with BIOMOL® GREEN at room temperature, the absorbance of the samples at 620 nm was monitored by TECAN plate reader. The phosphate release concentrations were calculated based on a phosphate standard curve.

By UniProt entry, the sequences of proteins in these tests, tags left out. Residues count along the entry.
UniProt P0A9A6, 1-366: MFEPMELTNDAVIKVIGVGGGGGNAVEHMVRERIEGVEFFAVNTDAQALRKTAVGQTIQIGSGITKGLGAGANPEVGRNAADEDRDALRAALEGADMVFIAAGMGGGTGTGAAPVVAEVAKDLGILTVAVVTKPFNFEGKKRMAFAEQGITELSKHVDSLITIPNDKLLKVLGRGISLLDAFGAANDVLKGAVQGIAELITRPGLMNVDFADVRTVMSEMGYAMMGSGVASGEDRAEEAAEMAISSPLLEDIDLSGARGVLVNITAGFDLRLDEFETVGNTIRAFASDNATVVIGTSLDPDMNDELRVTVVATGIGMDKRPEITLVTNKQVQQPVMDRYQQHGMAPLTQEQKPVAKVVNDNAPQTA

N[C@@H](Cc1ccc(O)c(I)c1)C(=O)O [IY, 3-iodo-L-tyrosine]
GTPase activity, Average: 1.7632 pi/min
